Test results taken from US20090175786A1.

The chains behind the UniProt entries cited, without tags or fusion partners. Where a name states a change or a piece, a line headed by the entry shows the natural chain unless it says otherwise.
UniProt P30550: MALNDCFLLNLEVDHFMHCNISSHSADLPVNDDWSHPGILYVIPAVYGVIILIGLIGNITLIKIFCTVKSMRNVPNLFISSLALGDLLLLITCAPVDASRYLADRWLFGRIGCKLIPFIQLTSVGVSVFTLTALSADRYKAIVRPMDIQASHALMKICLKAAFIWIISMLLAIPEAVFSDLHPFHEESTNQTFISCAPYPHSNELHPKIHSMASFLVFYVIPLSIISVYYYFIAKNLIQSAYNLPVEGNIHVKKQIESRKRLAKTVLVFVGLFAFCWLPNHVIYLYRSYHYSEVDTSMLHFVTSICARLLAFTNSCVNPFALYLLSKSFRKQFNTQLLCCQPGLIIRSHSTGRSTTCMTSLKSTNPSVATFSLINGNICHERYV
UniProt P32247: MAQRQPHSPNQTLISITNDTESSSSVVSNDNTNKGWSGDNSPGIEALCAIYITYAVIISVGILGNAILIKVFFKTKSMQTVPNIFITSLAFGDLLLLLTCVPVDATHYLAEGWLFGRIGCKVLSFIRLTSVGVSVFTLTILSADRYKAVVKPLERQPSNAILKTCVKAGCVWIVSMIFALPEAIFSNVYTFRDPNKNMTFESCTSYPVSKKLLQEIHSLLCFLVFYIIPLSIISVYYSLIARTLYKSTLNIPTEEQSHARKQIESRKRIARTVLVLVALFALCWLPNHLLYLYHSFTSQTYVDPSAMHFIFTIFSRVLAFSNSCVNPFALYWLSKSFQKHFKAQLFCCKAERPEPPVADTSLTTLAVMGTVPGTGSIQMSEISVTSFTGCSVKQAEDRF

Assays:
[1] = target: gastrin releasing peptide receptor (GRP-R), human (human) (UniProt P30550); experiment: 125I-BBN competition, PC3 cells
[2] = target: bombesin receptor subtype 3 (BB3-R), human (human) (UniProt P32247); experiment: displacement of 125I-universal ligand, human tumour sections

IC50 [1] | IC50 [2] | Substance
13 nM |  | DO3A-monoamide-G-Abz4-QWAVaHLM-NH2 (peptide)
 | 1.1 nM | [DTyr^6, βAla^11, Phe^13, Nle^14]-BBN(6-14) (peptide)
